The entries are a selection whose mix differs from that of the whole data set. Results filed as inconclusive are left out. Where a call stands in place of a potency, no number is given. The source made the active and inactive calls. The call rests on the fitted dose curve; in most records, active means well fitted inhibition curve with a large enough effect; inconclusive means small, poorly fitted or top-dose-only effect; inactive means no such curve, though single readings can be large or run the other way.
Experiment: qHTS for Inhibitors of TGF-b; further: nearly all actives have a fitted effect of over 65% in size
Details: HepG2 CAGA-GFP TGF-b/SMAD3 reporter, GFP fluorescence, 18 h, TGF-beta stimulated, 500 pg/mL final; series mostly up to 46.1 µM
Potency means the concentration at half of the fitted maximal effect.

Structure (SMILES) | Potency
O=P1(Nc2ccccn2)COc2ccccc2OC1 | inactive
CCOP(=O)(NC(=NC(C)c1ccccc1)NC(C)c1ccccc1)OCC (stereo unspecified) | inactive
CN(CCCl)Cc1cc(Cl)c(NC2=NCCN2)c(Cl)c1 | inactive
CCOP(=O)(Nc1ccc(C)cn1)OCC | inactive
Clc1n[nH]nc1-c1nn[nH][15n]1 | inactive
O=P1(N(CCCl)CCCl)NCCC(C(F)(F)F)O1 (stereo unspecified) | inactive
CC(C)(C)C(=O)NC(Sc1ncccn1)C(Cl)(Cl)Cl (stereo unspecified) | inactive
COc1ccccc1CNC(=O)COC(=O)C(O)(c1ccccc1)c1ccccc1 | inactive
CN(C(=O)Cc1ccc(Cl)c(Cl)c1)[C@@H]1CCCC[C@H]1N1CCCC1 | inactive
CC(C)/C=N\N=C(\N)N[N+](=O)[O-] | inactive
CC1(CBr)Cn2c(nc3ccccc3c2=O)S1 (stereo unspecified) | inactive
Cc1nn(-c2ccccc2)c2c1P(=O)(N1CCOCC1)N(C)C(c1ccccc1)=N2 (stereo unspecified) | inactive
CC1CCC(C(C)C)C(OP(=O)(Nc2ccccn2)c2ccccc2)C1 (stereo unspecified) | active: 17.8 µM
CN(C)C1(CNC(=O)c2ccc(S(C)(=O)=O)cc2)CCCCC1 | inactive
O=C(/C=C/c1ccccc1)OC1CN2CCC1CC2 (stereo unspecified) | inactive
CCCC1OP(=O)(Nc2ccccc2)OCC1CC (stereo unspecified) | inactive
Cc1ccc(S(=O)(=O)N(CCCN)CCCc2c(C)nc(N)[nH]c2=O)cc1 | inactive
O=P1(Nc2ncccn2)COc2ccccc2OC1 | inactive
Nc1cccc([As](=O)(O)c2ccccc2)c1 | inactive
NS(=O)(=O)c1cccc(NC(=O)COC(=O)C(O)(c2ccccc2)c2ccccc2)c1 | inactive
O=P1(Nc2ccc(Br)cn2)COc2ccccc2OC1 | inactive
O=[As](O)(c1cccs1)c1cccs1 | inactive
Cc1ccc(OCC(=O)OC2CN3CCC2CC3)cc1 (stereo unspecified) | inactive
CCOP1(=S)c2c(C)nn(CCC#N)c2N=C(c2ccccc2F)N1C (stereo unspecified) | inactive
O=P(Nc1nccs1)(c1ccccc1)c1nc2ccccc2s1 (stereo unspecified) | active: 11.2 µM

Structure (SMILES) | Potency
O=P(Nc1nccs1)(Oc1ccccc1)Oc1ccccc1 | inactive
CS(=O)(=O)c1cc([N+](=O)[O-])c2no[n+]([O-])c2c1 | inactive
O=C(O)COc1ccc([As](=O)(O)O)cc1[N+](=O)[O-] | inactive
NC(=O)Nc1ccc([As](=O)(O)O)cc1 | inactive
N#CCCN(C(=O)COC(=O)C(O)(c1ccccc1)c1ccccc1)c1ccc(F)cc1 | inactive
CCOP1(=S)c2c(C)nn(CCC#N)c2N=C(c2ccc(F)cc2)N1C (stereo unspecified) | inactive
CN(C(=O)Cc1ccccc1)[C@@H]1CC[C@]2(CCCO2)C[C@H]1N1CCCC1 | inactive
O=[N+]([O-])c1ccc2c(c1)nnn2O | inactive
CN(C(=O)Cc1ccc(Cl)c(Cl)c1)[C@H]1CC[C@@]2(CCCO2)C[C@@H]1N1CCCC1 | inactive
O=C(OC1CN2CCC1CC2)c1ccc(Cl)cc1 (stereo unspecified) | inactive
COc1cc(C(=O)NCC2(N3CCOCC3)CCCCC2)cc(Cl)c1OC(C)C | inactive
O=[As](O)(O)c1cccnc1 | inactive
CS(=O)(=O)c1ccc(Cl)c(NC(=O)COC(=O)C(O)(c2ccccc2)c2ccccc2)c1 | inactive
O=[As](O)(c1cccc(O)c1)c1cccc(O)c1 | inactive
Cc1cccc(OCC(=O)OC2CN3CCC2CC3)c1 (stereo unspecified) | inactive
Nc1cccc2c([As](=O)(O)O)cccc12 | inactive
Cc1ccc(NCCc2c([N+](=O)[O-])cc([N+](=O)[O-])cc2[N+](=O)[O-])cc1 | active: 12.6 µM
CCCOP(=S)(Nc1nc(N)cc(=O)[nH]1)OCCC | inactive
COc1cc(C2NCCC3(OCCO3)C2(C)C)cc(OC)c1OC (stereo unspecified) | inactive
CCOP(=O)(Nc1cccc2ccccc12)OCC | inactive
Cc1c2c(nc3ccccc13)SC(C(Cl)Cl)C2 (stereo unspecified) | inactive
O=C(OC1CN2CCC1CC2)C12CC3CC(CC(C3)C1)C2 (stereo unspecified) | inactive
Cc1cc(=O)[nH]c(N[N+](=O)[O-])n1 | inactive
O=P1(N(CCCl)CCCl)Nc2ccccc2N1 | inactive
O=P1(N(CCCl)CCCl)OCCCN1CCCl (stereo unspecified) | inactive

Structure (SMILES) | Potency
COc1ccc2nc(NP(=O)(c3ccccc3)c3ccccc3)sc2c1 | inactive
COc1cc(I)ccc1[As](=O)(O)O | inactive
COc1ccc(N/C(=N/P(=O)(N2CCOCC2)N2CCOCC2)N2CCOCC2)cc1 | inactive
C[As](=O)(O)c1cccc(C(=O)O)c1 | inactive
O=[As](O)(c1ccc(O)cc1)c1ccccc1O | inactive
COc1cc(C(=O)NCC2(N3CCOCC3)CCCCC2)ccc1OCC(C)C | inactive
Cc1ccc(OP(=O)(Nc2ccc([N+](=O)[O-])cn2)Oc2ccc(C)cc2)cc1 | inactive
ClCCN(CCCl)c1ccc(CC2C=CC=C2)cc1 | inactive
Cc1ccc2nc3c(c(C)c2c1)CC(C(Cl)Cl)S3 (stereo unspecified) | inactive
O=Cc1ccc(NCCCl)cc1 | inactive
ClCCSc1nnc(-c2cccnc2)o1 | inactive
CC(C)c1ccc(OP(=O)(Nc2ccccn2)Oc2ccccc2F)cc1 (stereo unspecified) | inactive
COC(=O)C1(C)COP(=O)(N2CCCCCC2)OC1 (stereo unspecified) | inactive
O=C(OC1CN2CCC1CC2)c1cccc2[nH]cnc12 (stereo unspecified) | inactive
CCN(CC)C(=S)SC(NC=O)C(Cl)(Cl)Cl (stereo unspecified) | inactive
CC(C)NC(=O)NP(=O)(Oc1ccccc1)Oc1ccccc1 | inactive
O=[N+]([O-])c1cc([N+](=O)[O-])c(-c2ccn[nH]2)s1 | active: 10 µM
O=C(O)C(O)c1ccc(N(CCCl)CCCl)cc1 (stereo unspecified) | inactive
CCOC(=O)Nc1ccc([As](=O)(O)O)c(O)c1 | inactive
CC1CCNP(=O)(N(CCCl)CCCl)O1 (stereo unspecified) | inactive
COP(=O)(OC)N1CC1c1ccccc1 (stereo unspecified) | inactive
Cc1cc(SC(NC(=O)c2ccccc2)C(Cl)(Cl)Cl)nc(C(C)C)n1 (stereo unspecified) | inactive
CCOC(=O)Nc1cccc([As](=O)(O)O)c1 | inactive
Cc1cc(SC(NC=O)C(Cl)(Cl)Cl)ncn1 (stereo unspecified) | inactive
O=P(Nc1ccccn1)(c1cccc2ccccc12)c1cccc2ccccc12 | inactive

Structure (SMILES) | Potency
O=[N+]([O-])c1ccc(Nc2ccc(Oc3ccc([N+](=O)[O-])cc3[N+](=O)[O-])cc2)c([N+](=O)[O-])c1 | inactive
COP1(=S)c2c(C)nn(CCC#N)c2N=C(c2ccc(F)cc2)N1C (stereo unspecified) | inactive
COC(=O)C1(C)COP(=O)(N2CCCC2)OC1 (stereo unspecified) | inactive
O=C(COc1ccccc1)OC1CN2CCC1CC2 (stereo unspecified) | inactive
O=C(OC1CN2CCC1CC2)c1cccc([N+](=O)[O-])c1 (stereo unspecified) | inactive
CCOC(=O)c1ccc(NC(=O)C(C)(CCl)SC)cc1 (stereo unspecified) | inactive
CCC(C)N(CC(C)C)C(=S)SC(NC(C)=O)C(Cl)(Cl)Cl (stereo unspecified) | inactive
CCOP(=O)(Nc1cccc2cccnc12)OCC | inactive
Cc1ccc(NP(=O)(Oc2ccccc2)Oc2ccccc2)nc1 | inactive
O=[N+]([O-])c1cc([N+](=O)[O-])c(CCNc2ccccc2)c([N+](=O)[O-])c1 | inactive
CCc1nc2c(n1)c1c(non1O)c1c2no[n+]1[O-] | active: 15.8 µM
CC(=O)N1C2C3N(C(C)=O)C1C1N(C(C)=O)C(C(N1C(C)=O)N3C(C)=O)N2C(C)=O | inactive
O=[N+]([O-])c1cccc2n[nH]nc12 | inactive
CCN(/C(=N/P(=O)(N1CCOCC1)N1CCOCC1)N1CCOCC1)c1ccc(OC)cc1 | inactive
Nc1ccc([As](=O)(O)c2ccc(N)cc2)cc1 | inactive
c1cc(-c2nn[nH]n2)ccc1-c1nn[nH]n1 | inactive
CC1CCN(C(=O)Oc2c(Cl)cc(Cl)c3cccnc23)CC1 | inactive
CC(C)=N/N=C(\N)N[N+](=O)[O-] | inactive
CC(C)c1nc(Nc2ccccc2)n(P(=O)(N(C)C)N(C)C)n1 | inactive
CN(C)C(=O)OCCc1n(C)cc[n+]1C | inactive
Cc1cc(C=O)ccc1N(CCCl)CCCl | inactive
O=C(Nc1cc([As](=O)(O)O)ccc1O)c1ccccc1 | inactive
O=P(/N=c1/nc(-c2ccccc2)n(-c2ccccc2)s1)(Nc1ccccc1)Nc1ccccc1 | inactive
O=[N+]([O-])c1ncn(CCn2ncnc2[N+](=O)[O-])n1 | inactive
CC(C)(C)C(=O)NC(Sc1ccncn1)C(Cl)(Cl)Cl (stereo unspecified) | inactive

Structure (SMILES) | Potency
O=[N+]([O-])c1cccc(NC2=NCC(CBr)S2)c1 (stereo unspecified) | inactive
COC(=O)C1(C)COP(=O)(Nc2ccccc2)OC1 (stereo unspecified) | inactive
CN(C)P(=O)(N(C)C)n1c(Nc2ccccc2)nnc1-c1ccccc1 | inactive
O=C(O)c1ccccc1[As](=O)(O)O | inactive
CC(=O)Nc1ccc([As](=O)(O)O)cc1 | inactive
CCCC1OP(N)(=O)OCC1CC (stereo unspecified) | inactive
CCOP(=O)(Nc1ccccc1)OCC | inactive
Cc1cc(SC(NC(=O)c2ccc(F)cc2)C(Cl)(Cl)Cl)ncn1 (stereo unspecified) | inactive
CN(C(=O)Cc1ccc(Cl)c(Cl)c1)[C@H]1CCCC[C@@H]1N1CCCC1 | inactive
Cc1ccc(NP(=O)(Oc2ccccc2F)Oc2ccccc2F)nc1 | inactive
Nc1c(O)cc([N+](=O)[O-])cc1[N+](=O)[O-] | inactive
Nc1cccc2ccc([As](=O)(O)O)cc12 | inactive
CCN(N=Nc1nonc1N)c1nonc1N | inactive
CN(C(=O)Cc1ccc(Cl)c(Cl)c1)[C@H]1CCCC[C@H]1N1CCCC1 | inactive
Cc1ccc(N/C(=N/P(=O)(N2CCOCC2)N2CCOCC2)N2CCOCC2)cc1 | inactive
O=[N+]([O-])c1cc2c(cc1[N+](=O)[O-])OCO2 | inactive
NC(=O)c1cc([N+](=O)[O-])cc([N+](=O)[O-])c1N | inactive
Clc1ccc(Cl)c(NC2=NCC(CBr)S2)c1 (stereo unspecified) | inactive
CN1CCCC(OC(=O)C(c2ccccc2)c2ccccc2)C1 (stereo unspecified) | inactive
COc1ccccc1OP(=O)(Nc1ccc(C)cn1)Oc1ccccc1OC | inactive
Cc1ccc(OP(=O)(Nc2nccs2)Oc2ccc(C)cc2)cc1 | inactive
